These results are taken from ChEMBL document CHEMBL1154350 (Bioorg Med Chem Lett, 2009).

For assay [1], the target named is T1, Succinyl-diaminopimelate desuccinylase (Haemophilus influenzae (strain ATCC 51907 / DSM 11121 / KW20 / Rd), UniProt P44514).
T1 sequence (P44514 whole entry): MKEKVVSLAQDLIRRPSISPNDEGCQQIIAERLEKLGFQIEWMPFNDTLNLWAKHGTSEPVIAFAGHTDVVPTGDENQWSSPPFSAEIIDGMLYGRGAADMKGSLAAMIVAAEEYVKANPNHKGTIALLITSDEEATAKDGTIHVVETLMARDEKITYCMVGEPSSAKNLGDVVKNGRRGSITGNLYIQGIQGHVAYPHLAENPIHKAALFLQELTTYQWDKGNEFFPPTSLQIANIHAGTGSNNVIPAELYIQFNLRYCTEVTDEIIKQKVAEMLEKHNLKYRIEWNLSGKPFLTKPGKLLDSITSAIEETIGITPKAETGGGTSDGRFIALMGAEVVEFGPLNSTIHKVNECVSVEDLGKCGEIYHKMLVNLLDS
Kind of assay: Inhibition of Haemophilus influenzae recombinant DapE.

Assay [2] has as its target T1, Succinyl-diaminopimelate desuccinylase. Briefly: Inhibition of Haemophilus influenzae recombinant DapE by competitive binding assay.

Turning to `OB(O)c1ccccc1` [PHENYLBORONIC ACID], the IC50 in assay [1] is 107 µM. Besides, in assay [2], the Ki stood at 56.9 µM.
